Data taken from US20230346735A1, “Nutritional Composition Comprising Carnitine and Method for Treating or Preventing an Infection in a Mammal” (priority 2020, published 2023).

Key:
[1] = tested on: ACE-2; assay type: in vivo, rat; conditions: exercising rats, liver and muscle samples, 25-400 mg/kg oral, 6 weeks, FIGS. 1-4
[2] = tested on: ACE-1/ACE-2 ratio; test: Rat plasma serum ELISA, ACE-1/ACE-2 ratio; assay type: in vivo; conditions: FIG. 5C
[3] = tested on: ACE-1/ACE-2 ratio; test: Human study, serum ACE-1/ACE-2 ratio; assay type: in vivo; conditions: 2 g daily, 5 weeks
Description: (§1) A human study was run with a total of 80 healthy male and female subjects ranging from 21 to 65 years of age, who were active (i.e. 30 minutes per day of moderate activity, 3 days per week) are randomized into two groups. One group was supplemented with 2 g daily of L-carnitine tartrate and one group was supplemented with a placebo matching control for a period of 5 weeks. Seventy-three subjects completed the trial and biomarker data were analyzed from the sera of the 73 completers. […]
(§2) To obtain human sera, venous blood was extracted by venipuncture of the antecubital vein using a 21-gauge syringe and collected into a 10 mL EDTA vacutainer tube (BD Vacutainer®, Becton, Dickinson and Company, Franklin Lakes, NJ) by a certified phlebotomist. […] Human ACE-1, ACE-2, TMPRSS2, Furin, CRP and TNF-alpha protein levels were assessed using commercially available ELISA kits, according the manufacturer recommendations, ACE-1 (R&D systems Inc., Minneapolis, MN, USA), ACE-2 (RayBiotech inc., Peachtree Corners, GA), TMPRSS2 (Novus Biologicals, Littleton, CO), CRP (R&D Systems Inc., Minneapolis, MN), TNF-alpha (Novus Biologicals, Littleton, CO), and Furin (Sigma Aldrich, St. Louis, MO). […]

[4] = tested on: TNF-alpha; test: Human study, serum ELISA, TNF-alpha; assay type: in vivo; conditions: Group A, from BL to Wk5, p<0.05
Description: as §1, §2

With `C[N+](C)(C)C[C@H](O)CC(=O)[O-]` [L-carnitine] the “ACE-2 levels (western blotting and mRNA fold change)” value [1] was “significant and dose dependent decrease”, the “ACE-1/ACE-2 ratio, level lower than the control” value ([2]; exercised rats with supplementation, serum) was 60% and the “serum ACE-1/ACE-2 ratio” value ([2]; exercised rats, plasma serum, ELISA) was “closer to the control levels”. The ACE-1/ACE-2 ratio [3] was “No changes occurred” and the “TNF-α relative percent change” value [4] was -9%.
